Our source for the Normal melting temperature values is the NIST ThermoML archive (doi:10.1016/j.fluid.2019.04.019).

The conditions of the data set: Crystal; visual observation.

Numbers after ± are expanded uncertainties.

In the case of `CCC[N+](CCC)(CCC)CCC.[Cl-]` [tetrapropylammonium chloride], the Normal melting temperature worked out at 229.2 ± 0.5 °C.
